Laboratory results reported in US20220267379A1 (published 2022).

Chains of the proteins cited; added tags and fusions are not shown. Residues count along the entry.
UniProt P49862, 30-253: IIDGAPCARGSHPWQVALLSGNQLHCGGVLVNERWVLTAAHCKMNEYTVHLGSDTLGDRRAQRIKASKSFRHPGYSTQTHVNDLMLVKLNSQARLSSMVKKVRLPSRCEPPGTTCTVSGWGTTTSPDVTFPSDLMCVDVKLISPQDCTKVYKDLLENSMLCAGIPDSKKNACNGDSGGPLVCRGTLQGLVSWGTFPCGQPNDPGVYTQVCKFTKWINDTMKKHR

Biological target: human Kallikrein-related peptidase 7 (hKLK7) (human, UniProt P49862 30-253)

Ki: 0.029 µM
Binder: PCLYLARC (side chains of Cys 2 and Cys 8 connected via 1,3-dibromoacetone) [peptide 114 (KLK7 inhibitor without C-terminal serine)]
